This note sets out measurements from publication PMC12120261, “Responsiveness of different MET tumour alterations to type I and type II MET inhibitors” (Clinical and Translational Medicine, 2025).

In this test the test system is stage IV, CD47‐MET fusion‐positive non‐small‐cell lung cancer (NSCLC). The following applies: Pt. 2, CD47‐MET NSCLC, before emergence of MET G1090A.

Turning to `C[C@@H](Oc1cc(-c2cnn(C3CCNCC3)c2)cnc1N)c1c(Cl)ccc(F)c1Cl` [crizotinib, Crizotinib], the clinical response result is on record as “responded”.
